How the values were obtained:
[1] = molecular target: T1, recombinant hCD127 (Sino Biologicals, reference 10975-H08H) (human, UniProt P16871 21-239); assay: Blitz (BLI), hCD127 captured on anti-human IgG Fc (AHC) biosensor, antibody at 20 µg/mL
T1 construct: Bought recombinant protein; In the Blitz assay the protein is said to be captured by an Fc fragment, and a second catalogue number (11612-H08H) is printed; also called human CD127 recombinant protein; recombinant human CD127
T1 chain: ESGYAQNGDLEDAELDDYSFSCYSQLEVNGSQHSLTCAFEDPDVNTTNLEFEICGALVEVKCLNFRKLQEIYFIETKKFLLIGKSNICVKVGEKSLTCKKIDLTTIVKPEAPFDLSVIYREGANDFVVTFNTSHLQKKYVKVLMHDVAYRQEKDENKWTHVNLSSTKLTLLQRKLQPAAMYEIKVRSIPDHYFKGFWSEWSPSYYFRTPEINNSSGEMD
Method: Recombinant hCD127 (Sino Biologicals, Beijing, China; reference 10975-H08H)/recombinant protein (Sino Biological Cat: 11612-H08H) was immobilized at 50 μg/ml by Fc fragment into anti-human IgG Fc (AHC) biosensor (Forte Bio, 18-5063) for 30 seconds. Then, anti-CD127 antibodies were added at 20 μg/mL (saturating concentration) for an association period of 120 seconds, followed by a dissociation period of anti-CD127 antibody in kinetics buffer for 120 seconds. Data analysis was made with the Blitz pro 1.2 software, which calculated association constant (ka) and dissociation constant (kd) and determined the affinity constant KD […].

[2] = molecular target: T1, recombinant hCD127 (Sino Biologicals, …); assay: ELISA, hCD127 immobilized on plastic at 1 µg/ml (given as ED50)
Method: For activity ELISA assay, recombinant hCD127 (Sino Biologicals, Beijing, China; reference 10975-H08H) was immobilized on plastic at 1 μg/ml and dilutions of anti-CD127 antibody were added to measure binding.

B1: N13B2-hVL3 (antibody, V domains shown)
VH: QVQLVESGGGLVKPGGSLRLSCAVSGFTLSDYYMAWIRQAPGKGLEWVSTISASGLRTYYPDSVKGRFTISRDNAKNSLYLQMNSLRAEDTAVYYCARPLSAHYGFNYFDYWGQGTLVTVSS
VL: DIQMTQSPSSLSASVGDRVTITCRTSEDIYQGLAWYQQKPGKAPKLLVYSANTLHIGVPSRFSGSGSGTDYTLTISSLQPEDFATYFCQQYYDYPLAFGGGTKVEIKR
With B1 the Kd [1] was 3.51 nM, the koff [1] was 0.00447 s⁻¹ and the kon [1] was 1.27e+06 M⁻¹ s⁻¹. The EC50 [2] was 0.0151 µg/mL.
